Target: Glutamate NMDA receptor; Grin1/Grin2b (Rattus norvegicus, UniProt P35439+Q00960)
Experiment: Antagonistic activity against N-methyl-D-aspartate glutamate receptor 1/2B.
Format: functional

Protein sequences, listed by entry. Tags and fused reporters are not part of them.
UniProt Q00960, whole entry: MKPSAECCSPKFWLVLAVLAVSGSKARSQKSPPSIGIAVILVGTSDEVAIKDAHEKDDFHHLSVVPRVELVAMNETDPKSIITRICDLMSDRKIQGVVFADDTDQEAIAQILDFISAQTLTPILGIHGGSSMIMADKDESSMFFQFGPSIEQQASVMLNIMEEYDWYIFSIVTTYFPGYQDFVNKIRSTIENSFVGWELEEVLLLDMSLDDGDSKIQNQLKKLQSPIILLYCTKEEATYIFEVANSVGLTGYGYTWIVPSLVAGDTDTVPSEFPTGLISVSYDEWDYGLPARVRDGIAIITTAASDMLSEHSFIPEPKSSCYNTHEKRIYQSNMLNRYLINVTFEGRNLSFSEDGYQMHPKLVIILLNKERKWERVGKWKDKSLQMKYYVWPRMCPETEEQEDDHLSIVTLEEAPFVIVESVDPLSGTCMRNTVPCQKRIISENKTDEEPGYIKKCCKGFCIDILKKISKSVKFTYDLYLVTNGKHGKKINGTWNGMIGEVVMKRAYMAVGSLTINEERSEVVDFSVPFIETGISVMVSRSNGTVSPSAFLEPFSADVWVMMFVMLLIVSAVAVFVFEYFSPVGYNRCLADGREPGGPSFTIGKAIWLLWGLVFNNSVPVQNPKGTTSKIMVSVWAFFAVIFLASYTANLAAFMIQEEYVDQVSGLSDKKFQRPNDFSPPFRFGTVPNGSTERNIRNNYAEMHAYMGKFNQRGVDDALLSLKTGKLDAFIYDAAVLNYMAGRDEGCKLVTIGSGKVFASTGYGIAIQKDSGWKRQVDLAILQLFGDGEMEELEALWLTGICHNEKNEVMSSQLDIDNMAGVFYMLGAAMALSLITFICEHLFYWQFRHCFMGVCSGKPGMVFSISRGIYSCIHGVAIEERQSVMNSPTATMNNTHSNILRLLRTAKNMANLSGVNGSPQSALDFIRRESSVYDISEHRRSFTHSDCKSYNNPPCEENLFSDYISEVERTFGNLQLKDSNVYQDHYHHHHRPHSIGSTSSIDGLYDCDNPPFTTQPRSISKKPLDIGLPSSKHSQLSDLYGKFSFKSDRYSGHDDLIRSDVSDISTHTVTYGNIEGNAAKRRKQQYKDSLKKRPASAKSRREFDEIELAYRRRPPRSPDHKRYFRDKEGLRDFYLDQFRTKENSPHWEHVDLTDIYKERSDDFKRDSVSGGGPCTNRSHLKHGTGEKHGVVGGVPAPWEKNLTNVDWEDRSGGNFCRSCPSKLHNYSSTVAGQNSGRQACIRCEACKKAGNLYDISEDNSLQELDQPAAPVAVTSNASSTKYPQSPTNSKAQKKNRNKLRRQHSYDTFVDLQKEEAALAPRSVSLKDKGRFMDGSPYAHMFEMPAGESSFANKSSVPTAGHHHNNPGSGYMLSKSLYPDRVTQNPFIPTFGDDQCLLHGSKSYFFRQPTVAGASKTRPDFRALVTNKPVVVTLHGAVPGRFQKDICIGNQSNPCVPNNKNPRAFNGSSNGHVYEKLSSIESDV

IC50: 120 nM
Compound: O=C(/C=C/c1ccc(O)cc1)N1CCC(Cc2ccccc2)CC1

Reference: ChEMBL document CHEMBL1132364, “Structure-activity relationship of N-(phenylalkyl)cinnamides as novel NR2B subtype-selective NMDA receptor antagonists” (J Med Chem, 1999)
